The subject of the assay is PNSCs. The assay is described as follows: Microtissue formation frequency and size according to HSA concentration. It is filed as cell-based. As to conditions: 24 hours suspension culture. On the procedure:
The Example provides a method of controlling the formation, number, and size of the peripheral nerve-mimicking microtissue by controlling a concentration of human serum albumin (HSA) added in the suspension culture medium. PNSCs collected from the monolayer culture environment are suspended in a suspension culture medium at a density of 1.0E+06/mL. The suspension culture medium was prepared by adding 1 μM dexamethasone and 1 mM N-acetylcysteine in a DMEM/F12 culture medium. ULA 6-well culture vessel (SPL Life Sciences) was used for preparation of peripheral nerve-mimicking microtissues. 1.0×10^5 PNSCs per cm^2 area were seeded in ULA 6-well culture vessels. 3 mL of suspension culture medium including 0, 0.01, 0.1, and 1% HSA was added to the culture vessel and subjected to suspension culture for 24 hours. The number and size of the formed peripheral nerve-mimicking microtissue were measured by a photoplanimetry method using ImageJ.

For the substance human serum albumin [HSA], for the setting “0.01, 0.1, and 1% HSA vs group without HSA”, the “formation frequency of microtissue formation” value is “increased significantly”. Under “0.01, 0.1, and 1% HSA”, the “size of peripheral nerve-mimicking microtissue” value is “increased significantly in proportion to the concentration”.

These data come from patent US20240277902A1, “METHOD FOR MANUFACTURING PERIPHERAL NERVE-MIMICKING MICROTISSUE AND USES THEREOF” (INNOSTEM BIO, priority 2021, published 2024).
